Laboratory results reported in PMC8309108, “Rapid and Sensitive Quantification of Intracellular Glycyl-Sarcosine for Semi-High-Throughput Screening for Inhibitors of PEPT-1” (Pharmaceutics, 2021).

Biological target: T1, PEPT-1 (Homo sapiens, UniProt P46059)
T1 construct: allowed to differentiate for at least 7 d to ensure sufficient PEPT-1 expression; host or cells: Caco-2
T1 sequence (P46059 1-708): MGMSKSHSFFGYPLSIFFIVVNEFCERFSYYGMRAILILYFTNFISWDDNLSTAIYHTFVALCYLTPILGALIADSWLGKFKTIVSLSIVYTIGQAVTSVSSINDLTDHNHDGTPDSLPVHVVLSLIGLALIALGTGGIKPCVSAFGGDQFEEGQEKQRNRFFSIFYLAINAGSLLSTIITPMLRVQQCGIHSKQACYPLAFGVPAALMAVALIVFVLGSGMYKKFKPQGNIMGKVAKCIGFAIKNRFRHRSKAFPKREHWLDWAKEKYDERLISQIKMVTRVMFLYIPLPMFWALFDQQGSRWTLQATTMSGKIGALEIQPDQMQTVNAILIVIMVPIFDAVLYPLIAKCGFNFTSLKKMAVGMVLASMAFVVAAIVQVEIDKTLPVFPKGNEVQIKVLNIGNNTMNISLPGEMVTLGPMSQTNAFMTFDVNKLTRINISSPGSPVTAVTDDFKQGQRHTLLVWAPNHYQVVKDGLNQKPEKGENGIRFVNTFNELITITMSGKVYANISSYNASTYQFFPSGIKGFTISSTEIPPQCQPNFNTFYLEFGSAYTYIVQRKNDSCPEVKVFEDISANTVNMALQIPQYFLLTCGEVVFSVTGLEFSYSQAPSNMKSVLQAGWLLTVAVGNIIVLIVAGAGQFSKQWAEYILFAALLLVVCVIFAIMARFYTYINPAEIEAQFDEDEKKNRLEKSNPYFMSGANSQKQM
Assay: Inhibition of PEPT-1 mediated Gly-Sar uptake in Caco-2 cells (UPLC-MS/MS quantification of intracellular Gly-Sar)
Type: cell-based
Details: representative study sample, incubation with 20 µM Gly-Sar and 1 mM losartan for 10 min
Description: Caco-2 cells were cultivated in DMEM supplemented with 10% FBS, glutamine (2 mM), penicillin (100 U/mL), streptomycin (100 µg/mL), and 1% NEAS. They were kept at 37 °C and 5% CO2 and passaged once a week. For validation and uptake experiments, cells were seeded in 96-well plates at a density of 6.25 × 10^4 cells/cm^2 and allowed to differentiate for at least 7 d to ensure sufficient PEPT-1 expression. The uptake buffer (MES) was prepared as previously described by Sun et al. and contained 50 mM MES, 136.9 mM NaCl, 5.4 mM KCl, 1.26 mM CaCl2, 0.81 mM MgSO4 × 7 H2O, 0.5 mM Na2HPO4, 0.44 mM KH2PO4, 0.42 mM NaHCO3, and 5.54 mM glucose. The pH value of the uptake buffer was adjusted to pH = 6.0 using either HCl or NaOH solutions. Gly-Sar uptake was tested after 7, 24, and 28 d of Caco-2 cell differentiation. […]
The quantification of Gly-Sar in cell homogenates was performed on a UPLC-MS/MS system consisting of a triple-stage quadrupole mass spectrometer (Waters Xevo TQ-XS with Z-spray ESI source) and an Acquity Classic UPLC® (Waters, Milford, MA, USA). […] Quantification of Gly-Sar and IS was performed by selected reaction monitoring (SRM) using argon collision gas for collision-induced dissociation (CID). […]

Structure (SMILES): CCCCc1nc(Cl)c(CO)n1Cc1ccc(-c2ccccc2-c2nn[nH]n2)cc1 [losartan]
- intracellular Gly-Sar concentration: 23.9 ng/mL
